Granule exo inh: LAMP-1 surface exposure blockers, TALL-104 cells – cell-based, flow cytometry, MLPCN library, primary screen; TALL-104 LAMP-1 surface exposure; cells stimulated with thapsigargin and PMA; inhibition, % at 10 µM; 360,000 tested, 0.66% active; AID 651702, 2012;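 active = inhibition above about 55%, limit read from the data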
ABCB6 inh 2: ABCB6 transporter inhibitors, primary screen, K562-ABCB6 cells, flow cytometry, MLPCN library; ATP-binding cassette sub-family B member 6 (Homo sapiens), Q9NP58; K562-ABCB6 porphyrin accumulation, 1 h; stronger effect = lower value; fluorescence ratio to DMSO, % at 10 µM; 360,000 tested, 0.19% active; AID 602162, 2011;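 active = fluorescence ratio to DMSO below 75%, the collection mean minus 3 SD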;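 note: signal is porphyrin accumulated inside mitochondria; 100% equals median channel fluorescence of DMSO control wells; lower ratio means ABCB6 inhibition with less porphyrin fluorescence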
PKA-R2B act: activators of PKA-R2B holoenzyme, primary screen, biochemical, fluorescence polarization, Cy5-IP20, human; cAMP-dependent protein kinase catalytic subunit beta (Homo sapiens) + cAMP-dependent …; PKA-R2B holoenzyme dissociation; R2B truncated from residue 108, S112A mutant; 0% DMSO only, 100% 113 µM cGMP; activation, % at 11.4 µM; 340,000 tested, 0.079% active; AID 504700, 2011;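 active = activation above a cutoff set at the mean over all compounds plus 3 SD, cut at about 18% in these data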;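 note: higher means more holoenzyme dissociation and a rise in polarization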
Yeast UUG start: modulators of yeast start codon fidelity, primary screen, whole organism, S. cerevisiae, single point, plate reader. S. cerevisiae UUG-firefly luciferase reporter, luminescence/redox ratio. activity score, % at 18.7 µM. hit rate 0.13% among 350,000;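 active = replicate mean at a twofold rise or more, about +100% in these data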;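 also: firefly luciferase made from a UUG start codon reports start codon fidelity; reporter light over untreated wells divided by growth signal over untreated wells; some hits fall short of that in this replicate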
PKA-R1A activ: activators of PKA-R1A holoenzyme, primary screen, biochemical, fluorescence polarization, Cy5-IP20, bovine R1A, mouse PKAc | 340,000 tested, 0.083% active | cAMP-dependent protein kinase type I-alpha regulatory subunit (Bos taurus) + … | PKA-R1A dissociation; scaled: DMSO 0%, 113 µM cGMP 100% | activation, % at 11.4 µM;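 active = percent activation above the mean of all tested compounds plus 3 SD, cut at about 19% in these data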;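 note: higher means more PKAc released from R1A so a rise in polarization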
pCIP destab: p/CIP-EGFP fusion destabilizers, primary screen, fluorescence, F442A cells; Q05BA5; 16 h; decrease of EGFP signal, % at 10 µM; 290,000 tested, 0.01% active; AID 1984, 2009;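 active = EGFP signal decrease of at least 30% at 10 µM or well 3 SD below plate mean, unless failing retest; inactive = the rest, including hits failing retest or dose response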
R1A FP artifact: FP signal interference without PKA proteins, confirmation, artefact control for PKA-R1A activator project, biochemical, fluorescence polarization, triplicate | shares compounds with PKA-R1A activ | Cy5-IP20 peptide alone, fluorescence polarization artifact counterscreen | activation, % at 11.4 µM | 280 tested, 7% active | AID 504799, 2011;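 active = mean activation over triplicate runs exceeds the adjusted cutoff derived for the parent primary screen, cut at about 19% in these data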;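 note: no PKA protein present so any polarization rise reflects compound interference; 0% = tracer peptide mix alone and 100% = mix with added PKA catalytic subunit; higher means stronger polarization artifact and likely false positive in parent screen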
PKA-R1A confirm: activators of PKA-R1A holoenzyme, confirmation, biochemical, fluorescence polarization, Cy5-IP20, triplicate; shares compounds with PKA-R1A activ; PKA-R1A holoenzyme dissociation; activation, % at 11.4 µM; 280 tested, 9% active; AID 504800, 2011;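 active = mean activation over replicate wells exceeds the adjusted hit threshold taken from the earlier primary screen, cut at about 20% in these data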;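 note: 0% = holoenzyme mix with DMSO only and 100% = cGMP-activated control wells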
Starred values were filed as active, the others as inactive; x = not tested or not shown. The list is not random: actives were taken first. Their share in the collection is about 0.94%.

Structure,Granule exo inh,ABCB6 inh 2,PKA-R2B act,Yeast UUG start,PKA-R1A activ,pCIP destab,R1A FP artifact,PKA-R1A confirm
CC(C)Nc1ccc(C(CC(N)=O)NC(=O)c2ccc(Br)cc2)cc1[N+](=O)[O-] (stereo not drawn),4,105,-4,-6,0,2,x,x
CN(Cc1ccccc1)c1ccc(C(CC(N)=O)NC(=O)c2ccc(Br)cc2)cc1[N+](=O)[O-] (stereo not drawn),-8,93,8,5,25*,-13,19*,19*
O=C(C[C@@H]1CC[C@@H](NS(=O)(=O)c2ccc(F)cc2)[C@H](CO)O1)NCCN1CCCCC1,x,x,x,1,x,x,x,x
COc1ccccc1CNC(=O)C[C@H]1CC[C@@H](NC(C)=O)[C@H](CO)O1,x,x,x,-4,x,x,x,x
Cc1ccc(-c2cc(C(=O)N3CCOCC3)no2)cc1,-7,90,5,-69,21*,10,6,5
CN(C)CC(=O)Nc1ccc2c(c1)[C@H]1C[C@H](CC(=O)N3CCOCC3)O[C@H](CO)[C@H]1O2,x,x,x,-14,x,x,x,x
COc1ccc(NC(=O)N(C)C[C@@H]2OCCCC[C@@H](C)Oc3ccc(NC(=O)Nc4ccc(F)cc4)cc3C(=O)N([C@@H](C)CO)C[C@@H]2C)cc1,x,x,x,-2,x,x,x,x
CC(C)NC(=O)N(C)C[C@H]1Oc2ncc(C#CC3(O)CCCC3)cc2C(=O)N([C@@H](C)CO)C[C@@H]1C,x,x,x,8,x,x,x,x
Cc1noc(C)c1NC(=O)N(C)C[C@@H]1Oc2ccc(NC(=O)C3CCCCC3)cc2CC(=O)N([C@@H](C)CO)C[C@H]1C,x,x,x,9,x,x,x,x
CCCCCCCn1c(C)nnc1-c1cnn(C)c1N,5,98,-2,x,20*,6,0,-1
Cc1nnc(-c2cnn(C)c2N)n1CCCN(C)C,-2,98,0,x,-4,2,x,x
CC(C)CC#Cc1cnc2c(c1)C(=O)N([C@H](C)CO)C[C@H](C)[C@H](CN(C)C(=O)c1ccccc1F)O2,x,x,x,2,x,x,x,x
Cc1ccc(S(=O)(=O)N/N=C/c2cc(Br)c(C)o2)cc1,-1,90,-10,6,8,-9,x,x
Cc1ccc(S(=O)(=O)NN=Cc2ccco2)cc1,5,101,1,-13,22*,x,2,2
C[C@@H]1CN([C@@H](C)CO)C(=O)Cc2cc(NC(=O)Nc3ccc(F)cc3)ccc2O[C@@H]1CN(C)C(=O)Nc1ccccc1,x,x,x,-7,x,x,x,x
CC(=O)c1ccc(NC(=O)CSc2nc3nc(C)cc(C)n3n2)cc1,-1,105,2,-14,19*,-11,0,1
COc1cccc(NC(=O)C[C@H]2CC[C@H]3[C@H](COc4ccc(NC(=O)C5CCCCC5)cc4C(=O)N3C)O2)c1,x,x,x,1,x,x,x,x
CCc1cc(C(=O)OC)c(NC(=O)CC2NCCNC2=O)s1 (stereo not drawn),-2,101,7,-12,25*,4,5,3
C[C@@H]1CN([C@@H](C)CO)C(=O)Cc2cc(NC(=O)Cc3ccccc3)ccc2O[C@H]1CN(C)S(=O)(=O)c1cccs1,x,x,x,6,x,x,x,x
CC(C)NC(=O)N[C@@H]1CC[C@H](CCNS(=O)(=O)c2ccc(Cl)cc2)O[C@@H]1CO,x,x,x,9,x,x,x,x
CCC(C)(C)n1nnnc1C(c1ccc(C)cc1)N1CCN(C(=O)c2ccco2)CC1 (stereo not drawn),-2,95,-8,12,-5,-1,x,x
CCC(C)(C)n1nnnc1C(c1cc2cccc(C)c2[nH]c1=O)N1CCN(C(=O)c2ccco2)CC1 (stereo not drawn),12,99,2,-7,19*,-8,4,2
COc1ccc(/C=C2\SC(=S)N(CC3CCCO3)C2=O)cc1 (stereo not drawn),-4,95,-14,x,-5,-8,x,x
O=C1/C(=C/c2cccnc2)SC(=S)N1CC1CCCO1 (stereo not drawn),-1,96,-5,x,25*,-11,0,0

5 of the compounds above, with two lines to a compound:
Under each structure – Granule exo inh | ABCB6 inh 2 | PKA-R2B act | Yeast UUG start | PKA-R1A activ | pCIP destab | R1A FP artifact | PKA-R1A confirm
> CC(=O)c1ccc(NC(=O)CSc2nc3nc(C)cc(C)n3n2)cc1
    -1 | 105 | 2 | -14 | 19* | -11 | 0 | 1
> COc1cccc(NC(=O)C[C@H]2CC[C@H]3[C@H](COc4ccc(NC(=O)C5CCCCC5)cc4C(=O)N3C)O2)c1
    x | x | x | 1 | x | x | x | x
> CCc1cc(C(=O)OC)c(NC(=O)CC2NCCNC2=O)s1 (stereo not drawn)
    -2 | 101 | 7 | -12 | 25* | 4 | 5 | 3
> C[C@@H]1CN([C@@H](C)CO)C(=O)Cc2cc(NC(=O)Cc3ccccc3)ccc2O[C@H]1CN(C)S(=O)(=O)c1cccs1
    x | x | x | 6 | x | x | x | x
> CC(C)NC(=O)N[C@@H]1CC[C@H](CCNS(=O)(=O)c2ccc(Cl)cc2)O[C@@H]1CO
    x | x | x | 9 | x | x | x | x

The listing continues.
Structure,Granule exo inh,ABCB6 inh 2,PKA-R2B act,Yeast UUG start,PKA-R1A activ,pCIP destab,R1A FP artifact,PKA-R1A confirm
Cc1cc(NC(=O)CSCC(=O)OCC(=O)Nc2cc(C)c(C)cc2[N+](=O)[O-])no1,14,96,-6,x,20*,x,6,10
CC(=O)N(C)C[C@@H]1Oc2cc(C3=CCCC3)ccc2S(=O)(=O)N([C@@H](C)CO)C[C@@H]1C,x,x,x,12,x,x,x,x
COc1ccc(C2C(C#N)=C(N)OC(C(C)(C)C)=C2C#N)cc1OC (stereo not drawn),-3,98,-12,-12,20*,5,4,2
COc1cccc(C2C(C#N)=C(N)OC(C(C)(C)C)=C2C#N)c1 (stereo not drawn),3,96,-10,2,-2,-2,x,x
COCC(=O)N[C@@H]1C=C[C@H](CC(=O)NCc2ccccc2OC)O[C@@H]1CO,x,x,x,-1,x,x,x,x
COc1ccccc1-c1cc(C(=O)Nc2cccnc2)no1,1,89,-11,-23,19*,-19,1,-1
O=C(C[C@H]1CC[C@H]2[C@@H](COC[C@H](O)CN2C(=O)Nc2ccccc2)O1)NCc1ccncn1,x,x,x,23,x,x,x,x
COC(=O)C1=CN(c2cccc(Cl)c2)C=C(C(=O)OC)C1c1cccc(OC)c1,-1,92,0,-3,19*,4,-1,-7
O=c1c(Cl)c(NCc2ccccc2Cl)cnn1C12CC3CC(CC(C3)C1)C2,-5,88,15,x,19*,-1,0,-1
O=c1c(Cl)c(NCc2ccco2)cnn1C12CC3CC(CC(C3)C1)C2,-1,92,3,-4,11,12,x,x
C[C@@H]1CN([C@H](C)CO)S(=O)(=O)c2ccc(C#Cc3ccccc3F)cc2O[C@H]1CN(C)C,x,x,x,-5,x,x,x,x
COc1ccc(/C=C(\C#N)C(=O)OCCNC(=O)c2ccncc2)cc1,0,97,10,x,20*,1,-1,-2
COc1ccc(/C=C/C(=O)OCCNC(=O)c2ccncc2)cc1OC,0,97,9,x,0,-1,x,x

Bioassay records as filed in PubChem BioAssay.
